# Binding of CDR-mutated scFvs to a peptide of the spike HR2 region

Binding partner: SARS-CoV-2 spike HR2 peptide, sequence PDVDLGDISGINAS.

Parent: Ab-14, a human scFv built as VH, three GGGGS repeats, VL. Only the CDRs of the light chain vary.
VH: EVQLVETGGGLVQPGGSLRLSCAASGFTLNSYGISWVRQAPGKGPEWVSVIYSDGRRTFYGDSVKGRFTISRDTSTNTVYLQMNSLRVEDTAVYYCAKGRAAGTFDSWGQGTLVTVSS
VL: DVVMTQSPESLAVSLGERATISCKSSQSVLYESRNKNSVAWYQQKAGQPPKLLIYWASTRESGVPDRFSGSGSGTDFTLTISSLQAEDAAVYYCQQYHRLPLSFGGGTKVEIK

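Phage display of a naive human antibody library on the peptide gave the parent. In library AAYL50, one, two or three CDR residues were substituted; doubles and triples were drawn at random. AlphaSeq pools MATa yeast showing the antibodies with MATalpha yeast showing the peptide. Binding brings cells together so that they mate, and sequencing counts the barcode pairs among the diploids. Read counts were normalised to the haploid input and turned into Kd by a linear fit to BCL2-family pairs of known affinity, for each replicate. There are three technical replicates.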

Substitutions are numbered in sequence along the VL above, starting at 1 (not Kabat). Kd is apparent (estimated from mating counts) and averaged on the log scale over replicates with a signal. Smaller is tighter. Where no diploid with the target was found in any replicate, the entry reads "no signal": below detection, most likely a poor binder, though not proof of it.

changes,Kd (apparent),seen in
L30R+S38K+V39C,11 µM,1 of 3
K36N+Q96M+R99H,5.0 µM,3 of 3
S33E+K36L+H98R,no signal,0 of 3
Y31N+N37R+P101D,no signal,0 of 3
S28N+W56R+Q95Y,4.5 µM,1 of 3
R34F+N35W+A57Q,30 µM,3 of 3
S26N+Y97H+R99E,190 nM,3 of 3
S28W+Y97R,12 µM,3 of 3
Y31C+Q96R,45 µM,1 of 3
E32C+E61N+P101E,350 µM,2 of 3
R60L+Y97C+L102P,no signal,0 of 3
L30N+R60H,140 nM,1 of 3
K36L+H98A+L102S,no signal,0 of 3
Q27D+E32L+H98G,23 nM,3 of 3
Q27D+L100I,no signal,0 of 3
R34C+W56T,3.7 nM,3 of 3
L30H+S58R+T59N,2.0 µM,1 of 3
N37M+E61K+Q96V,no signal,0 of 3
A57W+R60Q+Q95M,no signal,0 of 3
L30S+A57V,29 nM,3 of 3
W56R+S62W+R99T,25 nM,3 of 3
S33P+A57P+Q96H,560 nM,1 of 3
S58H+Y97P+S103I,67 nM,3 of 3
E32K+S33M+R99L,150 nM,2 of 3
Y31S+N35G+H98R,110 nM,3 of 3
R34N+V39Q+W56G,100 nM,3 of 3
R60S+H98R+L100V,5.4 µM,1 of 3
E32S+S38R+H98M,980 nM,3 of 3
S28M+V29H+A57Y,no signal,0 of 3
W56C+L100N+S103Y,4.9 nM,3 of 3
S33W+T59N+S62T,160 nM,3 of 3

Second part, the sequence after the result:

Kd (apparent),seen in,changes
49 nM,3 of 3,K24S+S26R+R34H
no signal,0 of 3,A57Y+T59G
15 nM,3 of 3,T59I+Q95I
8.7 nM,3 of 3,S33T+R34H+H98A
3.9 µM,1 of 3,Q96Y+R99A
no signal,0 of 3,K24M+S25Q+S38I
1.1 µM,2 of 3,K24D+N37K+S58T
2.5 mM,1 of 3,S33V+Q96P+L102K
no signal,0 of 3,S38L+S58N+E61N
180 µM,2 of 3,E32M+R34K
37 nM,3 of 3,S25A+N37S+W56C
35 nM,3 of 3,S26L+L30G+S103F
no signal,0 of 3,W56P+Q96D+L102V
no signal,0 of 3,K24Q+T59H+H98P
83 nM,3 of 3,K24Y+Y31V+Y97F
59 µM,1 of 3,K24F+S33L+S62G
no signal,0 of 3,Q27E+R60S+H98T
no signal,0 of 3,S28I+S33K+L102S
110 nM,3 of 3,S33M+S62H+Q96T
13 nM,3 of 3,Q27S+S33T
390 nM,3 of 3,S26A+S33E+S58I
70 nM,3 of 3,K36T+E61D+H98I
1.6 nM,3 of 3,S33Q+V39G
2.0 µM,2 of 3,K24N+E32A+Q96V
830 nM,1 of 3,S26Q+A57I+L100I
2.4 µM,3 of 3,N37R+A57C+Q96I
no signal,0 of 3,K36V+A40F+P101T
27 µM,1 of 3,Q27P+S28F+S38W
140 nM,3 of 3,Y31C+A57N+T59C
2.2 nM,3 of 3,E32V+W56N+Y97V
140 µM,1 of 3,A57L+H98D

Again, the first 4 entries without any signal:

changes,Kd (apparent),seen in
S33E+K36L+H98R,no signal,0 of 3
Y31N+N37R+P101D,no signal,0 of 3
R60L+Y97C+L102P,no signal,0 of 3
K36L+H98A+L102S,no signal,0 of 3

For reference, the parent read 4.4 nM as the reference entry and 48 nM as a member of this library. As a blank, each scFv also met three strains without target: over library AAYL50, 18% of these pairings were detected, typically at 15 µM and seldom below 970 nM.

Source: Engelhart et al. 2022 (doi:10.1038/s41597-022-01779-4), MIT Lincoln Laboratory and A-Alpha Bio; data file from the FLAb repository.